We go through four compounds from patent US10508118B2, “Pyrimidopyrrole compounds, method for preparing the same, pharmaceutical compositions comprising the same and uses thereof” (Xiamen University, priority 2015, dated 2019).

The chains behind the UniProt entries cited, without tags or fusion partners. A line that says so, or that is headed by a name, gives the form on record, which may keep a tag or linker. Residues count along the entry.
UniProt Q9UM73, 1058-1620 limits assumed: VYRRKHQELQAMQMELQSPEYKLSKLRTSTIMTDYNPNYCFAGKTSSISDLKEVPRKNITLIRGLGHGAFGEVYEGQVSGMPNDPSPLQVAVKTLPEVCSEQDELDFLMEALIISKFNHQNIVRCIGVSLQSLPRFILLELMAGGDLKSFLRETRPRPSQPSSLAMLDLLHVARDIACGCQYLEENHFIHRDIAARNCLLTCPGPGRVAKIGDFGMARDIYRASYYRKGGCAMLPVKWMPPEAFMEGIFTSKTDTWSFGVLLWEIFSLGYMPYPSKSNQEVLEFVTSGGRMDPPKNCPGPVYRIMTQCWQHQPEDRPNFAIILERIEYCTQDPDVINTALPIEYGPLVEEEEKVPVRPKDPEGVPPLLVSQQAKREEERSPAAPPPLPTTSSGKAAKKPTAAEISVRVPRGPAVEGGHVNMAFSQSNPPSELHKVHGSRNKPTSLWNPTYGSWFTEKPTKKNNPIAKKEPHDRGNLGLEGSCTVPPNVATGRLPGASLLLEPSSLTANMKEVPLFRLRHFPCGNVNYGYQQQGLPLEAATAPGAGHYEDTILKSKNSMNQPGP
UniProt Q9UM73, with tags, fused parts or gaps limits assumed: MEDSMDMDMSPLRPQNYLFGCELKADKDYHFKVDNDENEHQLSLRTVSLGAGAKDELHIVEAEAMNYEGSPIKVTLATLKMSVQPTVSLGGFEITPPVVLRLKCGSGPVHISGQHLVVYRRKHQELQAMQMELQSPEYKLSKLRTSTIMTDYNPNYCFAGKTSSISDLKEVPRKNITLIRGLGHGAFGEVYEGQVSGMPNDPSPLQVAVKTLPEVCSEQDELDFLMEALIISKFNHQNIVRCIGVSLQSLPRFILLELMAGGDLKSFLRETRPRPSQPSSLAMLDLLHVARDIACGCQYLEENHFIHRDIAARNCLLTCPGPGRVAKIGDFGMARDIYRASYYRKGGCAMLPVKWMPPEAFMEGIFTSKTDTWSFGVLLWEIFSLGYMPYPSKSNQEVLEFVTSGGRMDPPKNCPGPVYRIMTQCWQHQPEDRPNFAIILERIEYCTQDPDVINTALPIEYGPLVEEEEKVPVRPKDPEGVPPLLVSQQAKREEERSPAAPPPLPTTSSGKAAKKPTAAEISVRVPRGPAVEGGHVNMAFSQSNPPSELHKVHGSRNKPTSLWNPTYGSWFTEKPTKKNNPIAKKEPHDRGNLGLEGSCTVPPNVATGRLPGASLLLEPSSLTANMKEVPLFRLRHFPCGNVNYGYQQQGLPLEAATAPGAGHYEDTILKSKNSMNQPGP

Read-outs that look alike come from different tables or passages of the source.

In one test the target is EML4-ALK-BaF3 (Homo sapiens, UniProt Q9UM73). Description: Growth inhibition of EML4-ALK transformed BaF3 cells (MTS). Type of test: cell-based.
The next test deals with NPM-ALK-BaF3 (Homo sapiens, UniProt Q9UM73). Nature of the test: Growth inhibition of NPM-ALK transformed BaF3 cells (MTS).
The next test relates to wild type BaF3. Nature of the test: Growth inhibition of wild type BaF3 cells (broad-spectrum toxicity).

Broadly, the IC50 is the midpoint of a concentration-inhibition curve. Regarding `COC(=O)c1cccc(Nc2nc(Nc3ccc(N4CCN(C)CC4)cc3)nc3cc[nH]c23)c1`, the IC50 came out at 1560 nM on EML4-ALK-BaF3 (read-out: EML4-ALK (IC50 nM), 48 hours, Table 11, tested form: TFA salt); 1940 nM on NPM-ALK-BaF3 (read-out: NPM-ALK (IC50 nM), 48 hours, Table 11, tested form: TFA salt); 2550 nM in the test with wild type BaF3 (read-out: BaF3 (IC50 nM), 48 hours, MTS, Table 11, tested form: TFA salt).
For the compound `CCOc1cc(N2CCC(O)CC2)ccc1Nc1nc(NCc2ccccc2SC)c2c(ccn2C)n1`, the IC50 was greater than 10000 nM at EML4-ALK-BaF3 (read-out: EML4-ALK (IC50 nM), 48 hours, Table 12, tested form: TFA salt); greater than 10000 nM at NPM-ALK-BaF3 (read-out: NPM-ALK (IC50 nM), 48 hours, Table 12, tested form: TFA salt); greater than 10000 nM in the test with wild type BaF3 (read-out: BaF3 (IC50 nM), 48 hours, MTS, Table 12, tested form: TFA salt).
In the case of `CCOc1cc(N2CCC(O)CC2)ccc1Nc1nc(NCc2ccccc2S(C)(=O)=O)c2c(ccn2C)n1`, the IC50 was greater than 10000 nM on EML4-ALK-BaF3 (read-out: EML4-ALK (IC50 nM), 48 hours, Table 12); greater than 10000 nM on NPM-ALK-BaF3 (read-out: NPM-ALK (IC50 nM), 48 hours, Table 12); greater than 10000 nM in the test with wild type BaF3 (read-out: BaF3 (IC50 nM), 48 hours, MTS, Table 12).
Take `COc1cc(N2CCC(N3CCN(C)CC3)CC2)ccc1Nc1nc(NCc2ccccc2S(=O)(=O)C(C)C)c2[nH]ccc2n1`: the IC50 on EML4-ALK-BaF3 (read-out: EML4-ALK (IC50 nM), 48 hours, Table 11) was 4420 nM; on NPM-ALK-BaF3 (read-out: NPM-ALK (IC50 nM), 48 hours, Table 11), 6630 nM; in the test on wild type BaF3 (read-out: BaF3 (IC50 nM), 48 hours, MTS, Table 11), 7810 nM.
